Measured values: patent publication US8686152B2, “4,4-disubstituted piperidine derivatives useful as inhibitors of dipeptidyl peptidase-1 (DPP-1)” (Janssen Pharmaceutica NV, priority 2010, dated 2014)

Amino acid sequences for entries named in this document (tags omitted). Residues count along the entry.
UniProt P53634, 25-463 limits assumed: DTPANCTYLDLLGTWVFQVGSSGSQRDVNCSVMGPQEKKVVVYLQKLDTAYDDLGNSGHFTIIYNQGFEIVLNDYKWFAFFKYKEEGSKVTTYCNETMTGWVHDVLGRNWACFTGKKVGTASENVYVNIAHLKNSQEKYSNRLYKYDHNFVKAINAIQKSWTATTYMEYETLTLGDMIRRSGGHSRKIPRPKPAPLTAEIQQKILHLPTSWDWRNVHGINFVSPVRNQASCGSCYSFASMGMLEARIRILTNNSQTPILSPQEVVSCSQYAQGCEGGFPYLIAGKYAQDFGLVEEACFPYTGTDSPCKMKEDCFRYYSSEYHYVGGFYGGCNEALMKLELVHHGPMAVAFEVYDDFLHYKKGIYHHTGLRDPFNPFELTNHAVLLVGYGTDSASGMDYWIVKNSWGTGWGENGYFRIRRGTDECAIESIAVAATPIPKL

What follows are compounds tested against recombinant human DPP-1 (Cathepsin C) (Homo sapiens, UniProt P53634) (assay: DPP-1 Inhibition Assay (In Vitro), fluorogenic substrate GR-AMC). Details: read-out: DPP-1 Inhibition IC50; 0.15 nM DPP-1, 10 uM GR-AMC, pH 7.0, room temperature; average value where tested multiple times.
Protocol: Test compounds were assessed for DPP-1 (Cathepsin C) inhibitory activity using a fluorogenic substrate, GR-AMC (Glycine-Arginine-amino-4-methylcoumarin, Bachem, I-1215). The amount of amino-methylcoumarin released is proportional to the DPP-1 activity, and the reaction is monitored kinetically with a Molecular Devices plate reader using black 96-well plates.
All compounds were tested under room temperature conditions. The assay buffer consisted of 50 mM HEPES, pH 7.0, 100 mM NaCl, 2 mM glutathione (GSH), and 0.002% TWEEN 20. GSH and TWEEN 20 were added to the buffer fresh daily. Just prior to use, an in-house preparation of recombinant human DPP-1 (240 μM stock, MW 49.6 kD) was diluted 600-fold in assay buffer containing fresh 2 mM dithiothreitol (DTT) to activate the enzyme, then diluted into assay buffer (without DTT) 133-fold for a DPP-1 working solution of 3 nM. Test compounds were diluted in DMSO for 20× their final assay concentrations.
Additions to a 96-well black Costar 3915 plates were as follows: 90 μL of 11 μM GR-AMC, 5 μL test compound (followed by mixing), and 5 μL 3 nM DPP-1 to start the reaction. Fluorescent reactions were monitored kinetically at 360 nm excitation, 440 nm emission on a Molecular Devices Spectramax XPS reader. The Softmax Pro software of the reader determined the initial velocity of the selected data (the first 3-5 minutes of the reaction), and the best linear regression fit of the initial kinetic data. Final assay conditions were 0.15 nM DPP-1, 10 uM GR-AMC, 50 mM HEPES, pH 7.0, 100 mM NaCl, 2 mM GSH, 0.002% TWEEN 20, 1 uM DTT, 5.0% DMSO. Initial velocity rates were plotted vs. test compound concentration by use of a four-parameter logistics equation (nonlinear regression, sigmoidal dose-response (variable slope), with fixed Hill (1.0) using GraphPad Prism® software for determination of DPP-1 IC50. Within-run assay coefficient of variation (CV) was generally <10%; between-run CV <20%.
Representative compounds of the present invention were tested according to the procedure as described above, with results as listed in Table 5, below.

CS(=O)(=O)CC[C@H](N)C(=O)N1CCC(Cc2ccc(I)cc2)(C(=O)NC2CCCCC2)CC1 and C#CC[C@H](N)C(=O)N1CCC(Cc2ccc(-c3ccccc3)cc2)(C(=O)NC2CCCCC2)CC1 cannot be ordered by IC50: > 20 µM for the first, > 20 µM for the second.

Compound N[C@@H](Cn1cncn1)C(=O)N1CCC(Cc2ccc(-c3ccccc3)cc2)(C(=O)NC2CCCCC2)CC1 has an IC50 of 20 µM.
